Among the data in ChEMBL document CHEMBL1130119, “2-Carbomethoxy-3-aryl-8-oxabicyclo[3.2.1]octanes: potent non-nitrogen inhibitors of monoamine transporters” (J Med Chem, 1997) are Selectivity ratio values, retold here.

Chains of the proteins cited; added tags and fusions are not shown.
UniProt P31645, whole entry, looked up: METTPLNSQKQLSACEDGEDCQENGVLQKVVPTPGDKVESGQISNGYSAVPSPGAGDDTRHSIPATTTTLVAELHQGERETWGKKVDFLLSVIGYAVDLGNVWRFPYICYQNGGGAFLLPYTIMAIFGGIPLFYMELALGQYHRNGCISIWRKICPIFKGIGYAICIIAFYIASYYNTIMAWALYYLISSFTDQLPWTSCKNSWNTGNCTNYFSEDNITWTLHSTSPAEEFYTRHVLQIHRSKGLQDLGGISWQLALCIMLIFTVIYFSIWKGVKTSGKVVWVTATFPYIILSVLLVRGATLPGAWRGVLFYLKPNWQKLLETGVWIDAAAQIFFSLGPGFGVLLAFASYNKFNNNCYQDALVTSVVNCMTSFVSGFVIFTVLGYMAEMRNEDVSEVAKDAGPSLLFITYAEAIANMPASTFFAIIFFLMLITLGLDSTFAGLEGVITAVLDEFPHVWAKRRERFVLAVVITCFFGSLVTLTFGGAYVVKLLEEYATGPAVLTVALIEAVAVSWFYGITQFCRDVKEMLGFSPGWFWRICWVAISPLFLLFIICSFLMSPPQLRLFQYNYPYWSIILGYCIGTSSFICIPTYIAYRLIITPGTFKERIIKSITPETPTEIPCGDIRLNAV
UniProt Q01959, whole entry, looked up: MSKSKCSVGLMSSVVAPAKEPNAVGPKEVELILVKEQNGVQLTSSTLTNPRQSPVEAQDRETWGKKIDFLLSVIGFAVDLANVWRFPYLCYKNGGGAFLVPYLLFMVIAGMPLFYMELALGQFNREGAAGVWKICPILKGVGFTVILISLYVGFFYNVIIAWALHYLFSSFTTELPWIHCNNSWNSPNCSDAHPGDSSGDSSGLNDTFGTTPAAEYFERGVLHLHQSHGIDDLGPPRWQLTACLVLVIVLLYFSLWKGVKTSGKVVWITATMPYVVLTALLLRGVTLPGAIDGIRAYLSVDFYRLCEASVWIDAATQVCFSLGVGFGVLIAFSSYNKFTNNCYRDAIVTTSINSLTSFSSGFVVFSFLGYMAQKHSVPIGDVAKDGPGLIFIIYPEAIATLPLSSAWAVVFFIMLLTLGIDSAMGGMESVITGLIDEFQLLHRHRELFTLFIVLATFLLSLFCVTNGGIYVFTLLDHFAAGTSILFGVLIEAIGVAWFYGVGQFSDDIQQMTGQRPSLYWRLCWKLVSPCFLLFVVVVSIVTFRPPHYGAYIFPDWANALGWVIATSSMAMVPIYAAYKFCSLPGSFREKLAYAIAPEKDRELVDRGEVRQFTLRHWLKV

For this experiment, the target named is Monoamine transporters; serotonin & dopamine (Homo sapiens) (UniProt P31645+Q01959). Nature of the experiment: Selectivity ratio measured as the IC50 ratio of DAT receptor to that of 5-HT receptor/. The experiment is classed as protein assay.

For the molecule `COC(=O)[C@@H]1C2CC[C@H](C[C@@H]1c1ccccc1)N2C` (stereo in doubt; 18a), the Selectivity ratio was determined as 87.

As for `COC(=O)[C@@H]1C2CC[C@H](C[C@@H]1c1ccccc1)N2C` (stereo in doubt; 19a), the Selectivity ratio was 57.
